Measurements published in ChEMBL document CHEMBL1153814, “Synthesis of 3-deoxypentacyclic triterpene derivatives as inhibitors of glycogen phosphorylase” (J Nat Prod, 2009).

Target: T1, Glycogen phosphorylase, muscle form (Oryctolagus cuniculus, UniProt P00489)
T1 sequence (P00489 whole entry): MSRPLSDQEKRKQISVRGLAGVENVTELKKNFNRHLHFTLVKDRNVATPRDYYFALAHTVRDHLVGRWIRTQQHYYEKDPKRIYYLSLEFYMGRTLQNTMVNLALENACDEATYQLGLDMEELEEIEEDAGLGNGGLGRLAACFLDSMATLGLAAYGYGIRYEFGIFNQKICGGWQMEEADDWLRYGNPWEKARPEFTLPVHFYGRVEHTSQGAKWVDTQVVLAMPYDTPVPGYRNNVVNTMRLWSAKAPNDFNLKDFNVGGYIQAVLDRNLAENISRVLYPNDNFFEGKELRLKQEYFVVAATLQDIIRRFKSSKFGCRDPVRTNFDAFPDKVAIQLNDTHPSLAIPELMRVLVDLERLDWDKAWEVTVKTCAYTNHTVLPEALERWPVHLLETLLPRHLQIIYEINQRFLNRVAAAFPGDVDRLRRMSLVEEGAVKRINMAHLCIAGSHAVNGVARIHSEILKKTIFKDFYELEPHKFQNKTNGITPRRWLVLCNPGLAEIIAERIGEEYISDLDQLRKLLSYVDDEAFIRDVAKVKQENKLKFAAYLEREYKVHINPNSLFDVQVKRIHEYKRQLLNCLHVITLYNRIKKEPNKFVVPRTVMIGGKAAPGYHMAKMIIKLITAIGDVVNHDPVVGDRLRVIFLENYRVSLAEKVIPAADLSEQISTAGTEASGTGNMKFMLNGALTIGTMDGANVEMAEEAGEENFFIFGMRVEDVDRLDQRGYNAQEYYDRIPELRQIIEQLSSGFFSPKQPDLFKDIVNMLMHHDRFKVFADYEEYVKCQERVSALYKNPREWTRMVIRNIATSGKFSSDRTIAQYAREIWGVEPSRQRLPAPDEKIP
Assay: Inhibition of rabbit muscle glycogen phosphorylase assessed as release of phosphate from glucose-1-phosphate after 25 mins

IC50: 22.1 µM
SMILES: CC1(C)CC[C@]2(C(=O)O)CC[C@]3(C)C(=CC[C@@H]4[C@@]5(C)CC[C@H](O)C(C)(C)[C@@H]5CC[C@]43C)[C@@H]2C1 [OLEANOLIC_ACID]
